One assay addresses Monoglyceride lipase (Homo sapiens, UniProt Q99685). Description: In Vitro Competitive Activity-Based Protein Assay. The method, then:
(§1) Proteomes (mouse brain membrane fraction or cell lysates for mouse assays; human prefrontal cortex or cell membrane fractions for human assays) (50 μL, 1.0 mg/mL total protein concentration) were preincubated with varying concentrations of inhibitors at 37° C. After 30 min, FP Rh or HT-01 (1.0 μL, 50 μM in DM

Amino acid sequences for entries named in this document (tags omitted).
UniProt Q99685, whole entry, looked up: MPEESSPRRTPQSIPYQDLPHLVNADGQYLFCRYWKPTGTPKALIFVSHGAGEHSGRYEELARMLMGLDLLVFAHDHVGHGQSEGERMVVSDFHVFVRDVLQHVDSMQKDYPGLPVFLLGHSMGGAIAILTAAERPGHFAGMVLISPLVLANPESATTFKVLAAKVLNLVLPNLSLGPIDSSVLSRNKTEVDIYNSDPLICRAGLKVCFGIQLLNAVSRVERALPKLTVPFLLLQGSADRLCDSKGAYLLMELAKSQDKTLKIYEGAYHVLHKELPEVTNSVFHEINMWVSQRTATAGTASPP
UniProt O00519, whole entry, looked up: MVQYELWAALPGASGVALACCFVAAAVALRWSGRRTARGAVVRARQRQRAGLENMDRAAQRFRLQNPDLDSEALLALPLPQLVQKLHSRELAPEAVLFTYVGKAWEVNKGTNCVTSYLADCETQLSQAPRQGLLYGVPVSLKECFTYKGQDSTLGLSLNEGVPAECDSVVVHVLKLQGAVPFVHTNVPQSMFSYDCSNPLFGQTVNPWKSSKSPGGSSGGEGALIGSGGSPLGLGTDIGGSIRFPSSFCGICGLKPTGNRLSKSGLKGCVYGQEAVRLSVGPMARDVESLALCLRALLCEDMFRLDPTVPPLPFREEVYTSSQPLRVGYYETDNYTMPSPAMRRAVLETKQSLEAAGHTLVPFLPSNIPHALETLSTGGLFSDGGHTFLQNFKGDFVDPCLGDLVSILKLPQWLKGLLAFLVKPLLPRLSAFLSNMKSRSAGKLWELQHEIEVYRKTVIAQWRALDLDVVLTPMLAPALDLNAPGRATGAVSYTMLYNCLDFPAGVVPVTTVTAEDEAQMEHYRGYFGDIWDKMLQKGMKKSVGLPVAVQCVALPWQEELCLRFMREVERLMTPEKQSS

The target in assay [1] is Fatty-acid amide hydrolase 1 (Homo sapiens, UniProt O00519). Description: In Vitro Competitive Activity-Based Protein Assay. The method, then: as §1

Consider six compounds from BindingDB's records for US11129827.

With `CC(C)Oc1cc(CN2CCN(C(=O)Oc3cncc(N)c3)[C@H](C)C2)ccc1Cl`, at Monoglyceride lipase, the IC50 (usually the concentration that gives 50% inhibition) was over 51 µM.

On to `C[C@@H]1CN(Cc2cccc(C(F)(F)F)c2)CCN1C(=O)Oc1cncc(C(N)=O)c1`, for which the IC50 in assay [1] is under 1 µM.

For the compound `C[C@@H]1CN(Cc2cccc(OC(F)(F)F)c2)CCN1C(=O)Oc1cncc(F)c1`, the 50% inhibitory concentration (IC50) at Monoglyceride lipase is over 51 µM.

On Monoglyceride lipase, `Cc1c(F)cncc1OC(=O)N1CCN(Cc2cc(Cl)ccc2C(F)(F)F)CC1` returned an IC50 of over 51 µM.

For `C[C@@H]1CN(Cc2cnccc2C(F)(F)F)CCN1C(=O)Oc1cncc(C#N)c1`, at Monoglyceride lipase, the IC50 is over 51 µM.

Take `NC(=O)c1cc(Cl)cc(CN2CCN(C(=O)Oc3cncc(C(N)=O)c3)CC2)c1`: the IC50 at Monoglyceride lipase was over 51 µM.
